Experimental data from ChEMBL document CHEMBL5137055, “Near-Infrared Fluorescent Probes as Imaging and Theranostic Modalities for Amyloid-Beta and Tau Aggregates in Alzheimer's Disease” (J Med Chem, 2022).

Sequences of proteins named here, by UniProt entry; tags and fusion partners are left off.
UniProt P05067, whole entry: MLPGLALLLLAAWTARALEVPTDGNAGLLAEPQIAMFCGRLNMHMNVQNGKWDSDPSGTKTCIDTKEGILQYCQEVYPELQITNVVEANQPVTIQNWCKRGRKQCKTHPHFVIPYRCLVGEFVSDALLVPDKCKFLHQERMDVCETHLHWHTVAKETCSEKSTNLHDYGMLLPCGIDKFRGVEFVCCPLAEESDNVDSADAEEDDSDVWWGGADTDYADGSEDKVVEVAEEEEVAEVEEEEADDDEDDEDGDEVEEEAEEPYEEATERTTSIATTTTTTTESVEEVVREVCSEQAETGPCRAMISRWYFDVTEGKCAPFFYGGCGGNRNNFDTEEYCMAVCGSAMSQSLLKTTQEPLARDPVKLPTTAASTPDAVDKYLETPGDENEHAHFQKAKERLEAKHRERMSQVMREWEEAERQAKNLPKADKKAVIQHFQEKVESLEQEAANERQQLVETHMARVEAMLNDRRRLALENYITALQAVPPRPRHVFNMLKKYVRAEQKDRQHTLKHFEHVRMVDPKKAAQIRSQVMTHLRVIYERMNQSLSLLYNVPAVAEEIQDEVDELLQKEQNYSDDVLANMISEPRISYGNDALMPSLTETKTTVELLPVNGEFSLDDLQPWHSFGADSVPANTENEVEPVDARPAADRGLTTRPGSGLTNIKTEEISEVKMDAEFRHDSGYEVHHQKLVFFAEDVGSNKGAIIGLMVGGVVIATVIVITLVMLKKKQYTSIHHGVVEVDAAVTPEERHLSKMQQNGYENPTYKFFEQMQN

Target: Amyloid-beta precursor protein (Homo sapiens, UniProt P05067)
Experiment: Binding affinity to amyloid beta (1 to 42) (unknown origin) aggregates

Kd: 1.9 µM
SMILES: Cc1ccc2c(c1)sc(-c1ccc(N(C)C)cc1)[n+]2C
